Assays:
[1] = molecular target: eIF2 (yeast (Saccharomyces cerevisiae)) (UniProt P20459)
[2] = molecular target: eIF2 (yeast (Saccharomyces cerevisiae)) (UniProt P20459); experiment: pull-down; GDF assay (competition): 1 µg eIF2 or eIF2αP and 1 µg GST-eIF5 bound to glutathione sepharose beads 2 h at 4°C, washed, then challenged 2 h at 4°C with increasing concentrations of Flag-eIF2B complexes, subunits or eIF5-Flag; 30 mM HEPES, 100 mM KCl, 100 µM GDP, 5 mM DTT, 1 mM NaF, 2.5 mM MgCl2, 0.05% Triton X-100; bound eIF2 by immunoblot; fit y = 1 − [x/(x + IC50)]
[3] = molecular target: eIF2 (yeast (Saccharomyces cerevisiae)) (UniProt P20459); remark: listed apart in the source

Amino acid sequences for entries named in this document (tags omitted). A change or cut given only in a name is not applied to a line headed by its entry.
UniProt P20459: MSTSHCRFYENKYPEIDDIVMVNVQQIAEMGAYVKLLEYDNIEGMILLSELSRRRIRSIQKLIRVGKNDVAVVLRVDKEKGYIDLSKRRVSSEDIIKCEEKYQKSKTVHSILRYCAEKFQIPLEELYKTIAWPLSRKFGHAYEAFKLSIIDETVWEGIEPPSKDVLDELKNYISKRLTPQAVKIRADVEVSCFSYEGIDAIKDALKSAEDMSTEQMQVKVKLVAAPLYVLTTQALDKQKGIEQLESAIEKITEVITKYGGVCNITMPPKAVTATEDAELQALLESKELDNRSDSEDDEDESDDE

eIF2B complex (five subunits α, β, γ, δ, ɛ) (from UniProt P14741 1-305; P32502 1-381; P09032 1-578; P12754 1-651; P32501 1-712)
K1/2 of eIF2B for GDP release from eIF2 prebound to eIF5 (coupled GDI–GDF–GEF assay), as told in the discussion [1]: 47 nM
IC50 [2]: 15.1 nM
K1/2 of eIF2B for [3H]GDP release from eIF2 prebound to eIF5 (coupled GDI–GDF–GEF assay; pair displaced: eIF2 and eIF5) [3]: 46 nM
